Values quoted from earlier work as cited in patent US20260216110A1, “COMPOUND USEFUL AS THYROID HORMONE RECEPTOR ß-SELECTIVE THYROID HORMONE ANALOG” (NATIONAL UNIVERSITY CORPORATION TOKAI NATIONAL HIGHER …, priority 2022, published 2026).

Chains of the proteins cited; added tags and fusions are not shown.
UniProt P10828, whole entry: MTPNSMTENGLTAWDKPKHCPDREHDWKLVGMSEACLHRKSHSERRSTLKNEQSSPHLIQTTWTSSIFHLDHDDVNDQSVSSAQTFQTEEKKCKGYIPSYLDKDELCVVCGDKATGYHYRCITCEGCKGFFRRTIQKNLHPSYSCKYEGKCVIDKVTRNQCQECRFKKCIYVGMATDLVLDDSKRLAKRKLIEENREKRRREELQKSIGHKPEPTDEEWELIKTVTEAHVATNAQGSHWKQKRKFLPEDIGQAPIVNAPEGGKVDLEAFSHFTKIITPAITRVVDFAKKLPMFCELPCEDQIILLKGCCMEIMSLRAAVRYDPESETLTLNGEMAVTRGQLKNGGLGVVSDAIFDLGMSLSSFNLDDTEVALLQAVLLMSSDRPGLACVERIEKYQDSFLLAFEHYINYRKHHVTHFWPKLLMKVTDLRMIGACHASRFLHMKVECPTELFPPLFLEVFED

Target: THRβ (Homo sapiens, UniProt P10828)
Settings: relative to T3; cited from earlier work

Compound: Cc1cc(OCC(=O)O)cc(C)c1Cc1ccc(O)c(C(C)C)c1 [GC-1]
- affinity for THRβ: without significantly compromising
